The text below walks through data of publication PMC8442969 (Protein Science : A Publication of the Protein Society, 2021).

Chains of the proteins cited; added tags and fusions are not shown. Lines headed by an entry give the natural chain unless they say otherwise; changes in a name come on top.
UniProt P0CG48: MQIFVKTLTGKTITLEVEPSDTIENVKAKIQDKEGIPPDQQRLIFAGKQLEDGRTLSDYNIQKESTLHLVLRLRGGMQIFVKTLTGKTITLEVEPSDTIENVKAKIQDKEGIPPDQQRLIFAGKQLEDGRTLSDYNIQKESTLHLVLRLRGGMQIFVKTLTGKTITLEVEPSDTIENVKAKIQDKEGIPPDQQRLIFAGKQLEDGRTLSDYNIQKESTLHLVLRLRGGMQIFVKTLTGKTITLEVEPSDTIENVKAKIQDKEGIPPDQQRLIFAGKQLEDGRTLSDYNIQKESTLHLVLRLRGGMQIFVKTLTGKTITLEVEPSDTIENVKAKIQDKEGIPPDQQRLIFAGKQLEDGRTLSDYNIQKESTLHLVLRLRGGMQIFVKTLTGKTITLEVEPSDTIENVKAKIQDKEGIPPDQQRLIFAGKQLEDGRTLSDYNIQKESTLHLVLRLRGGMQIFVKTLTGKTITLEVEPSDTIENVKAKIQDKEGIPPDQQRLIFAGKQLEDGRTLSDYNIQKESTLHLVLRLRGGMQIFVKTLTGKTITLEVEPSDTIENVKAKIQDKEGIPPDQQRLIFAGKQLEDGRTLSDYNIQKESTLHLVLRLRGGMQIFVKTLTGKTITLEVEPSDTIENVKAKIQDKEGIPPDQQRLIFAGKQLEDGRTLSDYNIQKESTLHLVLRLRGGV

This experiment addresses 6His-tagged human mono-ubiquitin (bought) (human, UniProt P0CG48, in part). Put plainly: pull-down.

B1: GST-tagged human DSS1 (natural protein)
chain: MSEKKQPVDLGLLEEDDEFEEFPAEDWAGLDEDEDAHVWEDNWDDDNVEDDFSNQLRAELEKHGYKMETS
Regarding B1, the binding result is on record as “binds”.
